This series is described as follows: Plasma and brain concentrations in 6 Hz studies (LC-MS/MS). The series is classed as in vivo, mouse. As to conditions: Levetiracetam 300 mg/kg IP 1 h alone. Here is the method:
Sample Collection and Preparation: Mice were anesthetized by isoflurane inhalation (TECH-018) until they reached a surgical plane of anesthesia. Then a syringe (1 mL syringe with a 22 gauge needle) was inserted under the sternum into the heart (TECH-031). Approximately 0.5 mL of blood was collected, deposited into a K2EDTA tube, and stored on ice. Animals were then euthanized by cervical dislocation (TECH-018). Brains were removed, placed into a pre-weighed vial, and snap frozen on dry ice. At the end of the sample collection, blood was centrifuged at 4000 rpm for 10 minutes at 4° C., and the plasma pipetted into a labeled tube. All samples were stored in a −80° C. freezer until bioanalysis (8 days after sample collection for Studies 3A and 3B; 20 days after sample collection for Study 3C).
Plasma and Tissue Sample Analysis: Bead mill polypropylene tubes containing weighed brain tissues were thawed at room temperature and 3 mL of homogenization solvent (water:acetonitrile (1:1, v:v)) was added. The tubes were placed in the Bead Mill Homogenizer (Bead Ruptor Elite Model, Omni International) and shaken at a velocity of 3.70 m/s for a single cycle lasting 30 seconds. The homogenized tube was centrifuged at 4000 rpm for 20 minutes, the supernatant was transferred to a 1.5 mL Eppendorf tube, and stored frozen at −80° C. until analysis. All samples including plasma and brain homogenate extracts (including calibration and quality control (QC) samples prepared in K2EDTA rat plasma), were extracted by protein precipitation. […] The samples in the 1.5 mL tubes were vortex mixed and then centrifuged for 20 minutes at 13,000 rpm. Fifty microliters of the supernatant was mixed with 150 μL of water/acetonitrile (1:1) in a 96 well plate which was centrifuged post mixing for 20 minutes at 4000 rpm, and was then ready for analysis by liquid chromatography tandem mass spectrometry (LC-MS/MS).
Samples were analyzed by a research-grade LC-MS/MS method as follows: […]

Like-named read-outs stand apart in the source and are kept apart here.

On to `CC[C@@H](C(N)=O)N1CCCC1=O` [Levetiracetam, reference compound], for which the concentration at 1 h stood at 1130 ± 130 µM (CF-1, mouse, brain, intraperitoneal, 300 mg/kg, Study 3C, read-out: Brain); 1770 ± 287 µM (CF-1, mouse, plasma, intraperitoneal, 300 mg/kg, Study 3C, read-out: Plasma); 861 µM (Study 3B, listed as Lev, read-out: Brain); 1130 µM (Study 3C, listed as Lev, read-out: Brain); 1130 µM (mouse, brain, intraperitoneal, 300 mg/kg, Study 3C, read-out: Brain); 1770 ± 287 µM (mouse, plasma, intraperitoneal, 300 mg/kg, Study 3C, read-out: Plasma). Moreover, the Plasma is 1500 µM (Study 3B, listed as Lev) and 1770 µM (Study 3C, listed as Lev).

Source of the values: US20220288057A1, “CONJOINT THERAPY FOR TREATING SEIZURE DISORDERS” (XENON PHARMACEUTICALS INC., priority 2021, published 2022).
